The Kinase Knowledgebase extract (Sharma et al. 2016)

biological target: CDK2 (human) (UniProt P24941); assay: Enzyme Assay

Compound | IC50 [nM]
COC(=O)[C@H](Cc1ccc(O)cc1)NC(=O)c1cc(C(=O)O)c2cc(-c3ccc(C(C)(C)C)cc3)ccc2n1 | ≤ 1000
Cn1nnc([C@H](Cc2ccc(O)cc2)NC(=O)c2cc(C(=O)O)c3cc(-c4cccc(C(F)(F)F)c4)ccc3n2)n1 | ≤ 1000
NCC[C@H](Cc1ccc(O)cc1)NC(=O)c1cc(C(=O)O)c2cc(C=Cc3ccc(Cl)cc3)ccc2n1 | ≤ 1000
COC[C@H](Cc1ccc(O)cc1)NC(=O)c1cc(NS(=O)(=O)c2cccs2)c2cc(-c3cccc(C(F)(F)F)c3)ccc2n1 | ≤ 1000
COC[C@H](Cc1ccc(O)cc1)NC(=O)c1cc(NS(=O)(=O)c2ccccc2)c2cc(-c3cccc(C(F)(F)F)c3)ccc2n1 | ≤ 1000
COC(=O)[C@H](Cc1ccc(O)cc1)NC(=O)c1cc(C(=O)O)c2cc(C=Cc3ccc(C(F)(F)F)cc3)ccc2n1 | ≤ 1000
CCS(=O)(=O)Nc1cc(C(=O)N[C@H](COC)Cc2ccc(O)cc2)nc2ccc(-c3cccc(C(F)(F)F)c3)cc12 | ≤ 1000
COC(=O)[C@H](Cc1ccc(O)cc1)NC(=O)c1cc(C(=O)O)c2cc(C3CC3c3ccccc3)ccc2n1 (some centres not stated) | ≤ 1000
COC[C@H](Cc1ccc(O)cc1)NC(=O)c1cc(C(=O)O)c2cc(OCc3ccc(Cl)cc3)ccc2n1 | ≤ 1000
COC(=O)C(Cc1ccc(O)cc1)NC(=O)c1cc(C(=O)N(C)C)c2cc(-c3cccs3)ccc2n1 (configuration not stated) | ≤ 1000
COC(=O)[C@H](Cc1ccc(O)cc1)NC(=O)c1cc(C(=O)O)c2cc(-c3ccc(OCc4ccccc4)cc3)ccc2n1 | ≤ 1000
NC[C@H](Cc1ccc(O)cc1)NC(=O)c1cc(C(=O)O)c2cc(C=Cc3ccc(Cl)cc3)ccc2n1 | ≤ 1000
COC(=O)[C@H](Cc1ccc(O)cc1)NC(=O)c1cc(C(=O)O)c2cc(-c3ccc4c(c3)OCO4)ccc2n1 | ≤ 1000
COC[C@H](Cc1ccc(O)cc1)NC(=O)c1cc(C(=O)O)c2cc(-c3cccc(Cn4cccn4)c3)ccc2n1 | ≤ 1000
COC(=O)[C@H](Cc1ccc(O)cc1)NC(=O)c1cc(C(=O)O)c2cc(-c3ccc(C(F)(F)F)cc3)ccc2n1 | ≤ 1000
O=C(N[C@H](CO)Cc1ccc(O)cc1)c1cc(C(=O)O)c2cc(-c3cccc(C(F)(F)F)c3)ccc2n1 | ≤ 1000

Second part, the compound after the results:

IC50 [nM] | Compound
≤ 1000 | COC[C@H](Cc1ccc(O)cc1)NC(=O)c1cc(C(=O)O)c2cc(OCc3cccc(C(F)(F)F)c3)ccc2n1
≤ 1000 | COC[C@H](Cc1ccc(O)cc1)NC(=O)c1cc(NS(=O)(=O)C(C)(C)C)c2cc(-c3cccc(Cn4ccnc4)c3)ccc2n1
≤ 1000 | CCCCS(=O)(=O)Nc1cc(C(=O)N[C@H](COC)Cc2ccc(O)cc2)nc2ccc(-c3cccc(C(F)(F)F)c3)cc12
≤ 1000 | CC(C)(C)OC(=O)[C@H](Cc1ccc(O)cc1)NC(=O)c1cc(C(=O)O)c2cc(-c3cccc(C(F)(F)F)c3)ccc2n1
≤ 1000 | COC[C@H](Cc1ccc(O)cc1)NC(=O)c1cc(C(=O)O)c2cc(-c3cccc(Cn4ccnc4)c3)ccc2n1
≤ 1000 | COC(=O)c1cccc(-c2ccc3nc(C(=O)N[C@@H](Cc4ccc(O)cc4)C(=O)OC)cc(C(=O)O)c3c2)c1
≤ 1000 | COC(=O)[C@H](Cc1ccc(O)cc1)NC(=O)c1cc(C(=O)O)c2cc(-c3ccc(-c4ccccc4)cc3)ccc2n1
≤ 1000 | COC[C@H](Cc1ccc(O)cc1)NC(=O)c1cc(C(=O)O)c2cc(COc3ccc(OC(F)(F)F)cc3)ccc2n1
≤ 1000 | COC[C@H](Cc1ccc(O)cc1)NC(=O)c1cc(NS(=O)(=O)C(C)(C)C)c2cc(-c3cccc(Cn4ccccc4=O)c3)ccc2n1
≤ 1000 | COC[C@H](Cc1ccc(O)cc1)NC(=O)c1cc(NS(=O)(=O)Cc2ccccc2)c2cc(-c3cccc(C(F)(F)F)c3)ccc2n1
≤ 1000 | COC(=O)[C@H](Cc1ccc(O)cc1)NC(=O)c1cc(C(=O)O)c2cc(C=Cc3ccccc3)ccc2n1
≤ 1000 | COC(=O)C[C@H](Cc1ccc(O)cc1)NC(=O)c1cc(C(=O)O)c2cc(-c3cccc(C(F)(F)F)c3)ccc2n1
≤ 1000 | COC(=O)C(NC(=O)c1cc(C(=O)O)c2cc(-c3cccc(C(F)(F)F)c3)ccc2n1)[C@@H](C)c1ccccc1 (some centres not stated)
≤ 1000 | CCOC[C@H](Cc1ccc(O)cc1)NC(=O)c1cc(C(=O)O)c2cc(-c3cccc(C(F)(F)F)c3)ccc2n1
≤ 1000 | CN1CCN(C[C@H](Cc2ccc(O)cc2)NC(=O)c2cc(C(=O)O)c3cc(C=Cc4ccc(Cl)cc4)ccc3n2)CC1
≤ 1000 | COC[C@H](Cc1ccc(O)cc1)NC(=O)c1cc(NS(=O)(=O)C(C)(C)C)c2cc(-c3cccc(Cn4cccn4)c3)ccc2n1
≤ 1000 | COC[C@H](Cc1ccc(O)cc1)NC(=O)c1cc(C(=O)O)c2cc(-c3cccc(COc4ccccn4)c3)ccc2n1
≤ 1000 | COC[C@H](Cc1ccc(O)cc1)NC(=O)c1cc(NS(=O)(=O)C(C)C)c2cc(-c3cccc(C(F)(F)F)c3)ccc2n1
≤ 1000 | COC(=O)[C@H](Cc1ccc(O)cc1)NC(=O)c1cc(C(=O)O)c2cc(-c3ccccc3C)ccc2n1
≤ 1000 | COC(=O)[C@H](Cc1ccc(O)c(O)c1)NC(=O)c1cc(C(=O)O)c2cc(-c3cccc(C(F)(F)F)c3)ccc2n1
≤ 1000 | COC[C@H](Cc1ccc(O)cc1)NC(=O)c1cc(NS(=O)(=O)C(C)(C)C)c2cc(-c3cccc(C(F)(F)F)c3)ccc2n1
